In patent US7136698B2 (priority 1996, dated 2006):

What was measured:
[1] = Current density and increased efficiency: electrotransport fentanyl delivery with or without initial high current density boluses; settings: bolus group versus 20 μA/cm^2 constant DC group
[2] = Current density and fentanyl flux: constant DC electrotransport delivery; settings: for average transdermal fentanyl flux: 24 hours
[3] = Pulsing frequency and fentanyl flux: transdermal electrotransport delivery with pulsed current; settings: for Rate of Fentanyl Delivery, Without Bolus Treatment / Rate of Fentanyl Delivery, After Bolus Treatment: 31% duty cycle; for Rate of Fentanyl Delivery, After Bolus Treatment: after DC bolus 30 minutes at 0.1 mA/cm^2; for fentanyl flux (FIG. 7): 100 μA/cm^2, 31% duty cycle

CCC(=O)N(c1ccccc1)C1CCN(CCc2ccccc2)CC1
fentanyl transdermal delivery efficiency (FIG. 5, mean serum fentanyl concentration) [1]: higher efficiency fentanyl transdermal delivery | average transdermal fentanyl flux ([2]; applied current density 10 μA/cm^2 (50 μA)): 19 µg/h | average transdermal fentanyl flux ([2]; applied current density 20 μA/cm^2 (100 μA)): 73 µg/h | average transdermal fentanyl flux ([2]; applied current density 40 μA/cm^2 (200 μA)): 173 µg/h | increase in drug delivery rate ([2]; current increased four-fold from 50 μA to 200 μA): almost ten-fold increase | Rate of Fentanyl Delivery, Without Bolus Treatment ([3]; 1 Hz, pulse width 310 msec): 48** μg/hr | Rate of Fentanyl Delivery, After Bolus Treatment ([3]; 1 Hz, pulse width 310 msec): 48** μg/hr | Rate of Fentanyl Delivery, Without Bolus Treatment ([3]; 10 Hz, pulse width 31 msec): 52** μg/hr | Rate of Fentanyl Delivery, After Bolus Treatment ([3]; 10 Hz, pulse width 31 msec): 52** μg/hr | Rate of Fentanyl Delivery, Without Bolus Treatment ([3]; 625 Hz, pulse width 0.5 msec): 7 µg/h | Rate of Fentanyl Delivery, After Bolus Treatment ([3]; 625 Hz, pulse width 0.5 msec): 34 µg/h | fentanyl flux (FIG. 7) ([3]; pulsing frequencies 1 and 10 Hz): increased fentanyl flux | fentanyl flux (FIG. 7) ([3]; square-wave frequency 625 Hz): minimal fentanyl flux

This is a selection: effects in other tests are not listed, and their absence says nothing. Marks after values point to notes of the source that are not given here.
